Our source for the IC50 values is ChEMBL document CHEMBL1140429, “Conversion of the potent delta-opioid agonist H-Dmt-Tic-NH-CH(2)-bid into delta-opioid antagonists by N(1)-benzimidazole alkylation(1)” (J Med Chem, 2005).

Chains of the proteins cited; added tags and fusions are not shown.
UniProt P32300, whole entry: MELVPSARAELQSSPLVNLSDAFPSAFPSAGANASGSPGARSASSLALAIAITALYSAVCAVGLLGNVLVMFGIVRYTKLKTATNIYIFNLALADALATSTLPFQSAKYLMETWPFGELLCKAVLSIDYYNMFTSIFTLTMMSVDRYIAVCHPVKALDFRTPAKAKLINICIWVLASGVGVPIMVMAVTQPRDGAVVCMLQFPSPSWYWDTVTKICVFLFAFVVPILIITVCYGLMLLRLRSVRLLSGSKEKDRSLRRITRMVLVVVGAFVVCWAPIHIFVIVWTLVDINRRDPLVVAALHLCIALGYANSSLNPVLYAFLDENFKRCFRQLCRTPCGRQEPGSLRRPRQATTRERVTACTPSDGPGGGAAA

The target of the assay is Delta-type opioid receptor (Mus musculus, UniProt P32300). As to the kind of experiment: Functional bioactivity against delta opioid receptor in mouse vas deferens. It is filed as tissue-based.

Regarding `CC(C)[C@H](NC(=O)[C@H](CC(=O)O)NC(=O)[C@H](Cc1ccccc1)NC(=O)[C@@H](C)NC(=O)[C@@H](N)Cc1ccc(O)cc1)C(=O)N[C@H](C(=O)NCC(N)=O)C(C)C` [DELTORPHIN C], it took 0.17 nM to reach half-maximal inhibition (IC50).
